Literature values, collected in US8496960B2, “Terazosin transdermal device and methods” (Purdue Pharma L.P., priority 2001, dated 2013).

Settings: following oral administration

- absorption: almost completely absorbed
Structure (SMILES): COc1cc2nc(N3CCN(C(=O)C4CCCO4)CC3)nc(N)c2cc1OC (stereo not shown) [terazosin]
